Test: Test (B): durability (activity duration) on storage
Type: physicochemical
Conditions: 0.5% in water (oil-soluble: emulsion with 2% Tween 80), stored at 40° C. for one month
Experimental: An ascorbic acid derivative was dissolved in water to have a concentration of 0.5% (in the case of an oil-soluble SF-621 US material, it was emulsion-dispersed in an ordinary manner by adding 2% of a surfactant Tween 80 (trademark)) and stored at 40° C. for one month. Then the residual amount of the derivative was measured by the HPLC method described later in the Examples. When the residual ratio was 90% or more, the evaluation was “+” and when it was less than 90%, the evaluation was “−”.
An ascorbic acid derivative was dissolved in water to have a concentration of 0.5% (in the case of an oil-soluble material, it was emulsion-dispersed in an ordinary manner by adding 2% of a surfactant Tween 80 (trademark)) and stored at 40° C. for one month. Then the residual amount of the derivative was measured by the HPLC method. When the residual ratio was 90% or more, the evaluation was “+” and when it was less than 90%, the evaluation was “−”.

## 2-Palmitoyloxy-L-ascorbic acid-2-phosphate
  Test (B): durability (residual ratio of the derivative by HPLC): + (When the residual ratio was 90% or more, the evaluation was “+”)

Reference: patent US6437002B1, “Agent for preventing and treating skin diseases” (Showa Denko K.K., priority 1998, dated 2002)
